Results on 2 molecules are retold here after US20210196823A1, “Methods of Treating Metabolic Disease” (Pfizer Inc., priority 2018, published 2021).

Experiment [1] concerns biotinylated monoFC-muErfe. Kind of experiment: FRET assay: BMPs disrupting binding of cryptate-labelled anti-ERFE antibody 15.1 to biotinylated monoFC-muErfe. On the set-up: species or system murine. The note with it: competing antigen 250 nM to 0.39 nM, Ab 15.1 15 nM, 3 hours room temperature. The procedure:
(a) Investigation of the ability of BMPs to disrupt binding of cryptate-labelled anti-ERFE antibody to biotinylated murine ERFE: FRET assay was used to determine the ability of BMPs to disrupt binding between ERFE and a neutralising anti-ERFE antibody (Ab 15.1). The assay setup comprised streptavidin XL665 (cisbio assays) at a constant concentration of 1:1000 to be 50 ng per well, biotinylated monoFC-muErfe (9 μM) i.e. a monomeric FC murine ERFE fusion, cryptate labelled anti-ERFE antibody (Ab 15.1) at 15 nM. Each reaction well contained a total volume of 20 μl comprising: 5 μl streptavidin XL665, 5 μl Biotinylated monoFC-muErfe, 5 μl cryptate labelled anti-ERFE antibody 15.1, 5 μl competing antigen as a titration from 250 nM to 0.39 nM, all antigens at each concentration were assayed in duplicate. Reactions were left for 3 hours at room temperature and then […] at 665 nm and […] was read on the Envision. […] The assay was also conducted using a non-neutralising anti-ERFE antibody as a control.

In experiment [2] the test system is HAMP-nanoluciferase fusion in HepG2 hepatoma cells. The experiment can be described thus: hepcidin transcriptional fusion reporter assay (nano-luc / nano-luciferase assay). It counts as cell-based. The note with it: NanoLuc cells, serially diluted BMP, 24 h. The procedure: The was measured in-vitro using as follows: A hepcidin transcriptional fusion reporter assay (nano-luc or nano-luciferase assay) was developed to assess the effect of BMPs on hepcidin production in-vitro. A nanoluciferase reporter was inserted at the end of the coding sequence of the endogenous HAMP gene, in HepG2 hepatoma cells, creating a HAMP-nanoluciferase fusion. CRISPR-Cas9 was used to edit the cells with this knock-in reporter construct. A bovine Growth Hormone poly A was included after the nanoLuc to ensure proper mRNA processing. A Puromycin-TK expression cassette was also included 3′ of the nanoluc reporter to enrich for properly targeted clones. Clones that were homozygous for the HAMP-NanoLuc fusion were selected and tested for their response to BMPs and LDN(4-[6-[4-(1-Piperazinyl)phenyl]pyrazolo[1,5-a]pyrimidin-3-yl]quinoline dihydrochloride), a potent ALK2/3 BMP inhibitor, a schematic of the nano-luc construct is shown in FIG. 1B. The effect of representative BMPs (BMP, 2, 6, 9) on the Hamp-nanoLuc signal was assessed. Approximately 20,000 cells (cells split with trypsin/EDTA) were suspended in 200 uL of complete media (DMEM+10% serum+Na pyruvate) and were distributed into each well of 96-well plates and incubated for 24 hours at 37 C. […] Plates were read on Envision with Lum700 program following the manufacturer's instructions.
(Reporter assays use an easily measured gene product as a stand-in for the process of interest.)

Another experiment has as its system gluteal preadipocytes. The experiment can be described thus: Western blot of phospho- and total SMAD1/5/8 in preadipocytes. It is filed as cell-based, Human. The following applies: gluteal cells, BMP2, 30 minutes. How it is done: (§1) (a) Primary pre-adipocyte isolation. Human primary pre-adipocytes were prepared by isolation from white adipose tissue (WAT) biopsies taken under local anesthetic (1% lignocaine) by needle aspiration at the level of the umbilicus (ASAT) and from the upper-, outer-quadrant of the gluteal region (GSAT). Primary preadipocytes were isolated from ASAT and GSAT biopsies by mechanically mincing using scissors, washed twice with Hanks' buffered salt solution to remove contaminating blood, and then enzymatically digested in 1 mg/ml collagenase (Roche Applied Science) in Hanks' buffered salt solution in a shaking water bath (90 rpm) at 37° C. for 45 min. The digested tissue was centrifuged at 1000 rpm for 5 min at 4° C. The pellet containing stromal-vascular cells was resuspended in Dulbecco's modified Eagle's medium/F12 Ham's nutrient mixture (v/v, 1:1) containing 17.5 mM glucose and supplemented with 10% foetal calf serum, 0.25 ng/ml fibroblast growth factor, 2 mM glutamine, 100 units/ml penicillin and 100 μg/ml streptomycin. Cell stocks of APAD and GPAD cells were prepared and stored in liquid nitrogen for future studies. […]
A general note: Immunoblotting shows a protein as a band on a membrane.

The test system of a further experiment is abdominal preadipocytes. The experiment is described as above. The note with it: abdominal cells, BMP2, 30 minutes. It is filed as cell-based, Human. How it is done:
as §1

As for “BMP 2/6 heterodimer: heterodimer of BMP2 and BMP6”, the “competition with cryptate labelled anti-ERFE antibody for binding to biotinylated monoFC-muErfe” value in experiment [1] was “measurable competition”.

B1: BMP2: bone morphogenetic protein 2 (R&D systems) (protein)
chain: QAKHKQRKRLKSSCKRHPLYVDFSDVGWNDWIVAPPGYHAFYCHGECPFPLADHLNSTNHAIVQTLVNSVNSKIPKACCVPTELSAISMLYLDENEKVVLKNYQDMVVEGCGCR
For the molecule B1, the “hepcidin expression (hepcidin-nanoluciferase fusion expression)” value in experiment [2] is “dose-dependent increase”. In addition, the SMAD1/5/8 phosphorylation result with gluteal preadipocytes and in the experiment on abdominal preadipocytes was “increase” throughout.
